Cyclic peptide permeability, from CycPeptMPDB

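The data file gives no further conditions (lipid, pH, time, direction or concentration), and values from different papers need not be comparable. Other peptides of the study may be missing here. Entries at the database's floor value (log10 P of -10) are not listed.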

PAMPA is the parallel artificial membrane permeability assay, which has no cells and reads passive diffusion.
Permeability is given as log10 of P in cm/s; higher (less negative) is more permeable.

{"smiles": "CC(C)C[C@@H]1C(=O)N[C@@H](Cc2ccccc2)C(=O)N2CCC[C@@H]2C(=O)N[C@H](C)C(=O)N(C)[C@H](CC(C)C)C(=O)N(Cc2ccccc2)CC(=O)N2CCC[C@@H]2C(=O)N1C", "PAMPA (log10 cm/s)": "-5.78"}
{"smiles": "CC(C)C[C@@H]1NC(=O)[C@@H](C)N(C)C(=O)[C@@H]2CCCN2C(=O)[C@H](Cc2ccccc2)NC(=O)[C@@H](CC(C)C)N(C)C(=O)[C@H]2CCCN2C(=O)[C@@H](CC(C)C)N(C)C1=O", "PAMPA (log10 cm/s)": "-5.98"}
{"smiles": "CC(C)C[C@@H]1C(=O)N2CCC[C@H]2C(=O)N(Cc2ccccc2)CC(=O)N[C@@H](Cc2ccccc2)C(=O)N2CCC[C@@H]2C(=O)N[C@@H](C)C(=O)N[C@H](CC(C)C)C(=O)N1C", "PAMPA (log10 cm/s)": "-5.91"}
{"smiles": "CC(C)C[C@@H]1C(=O)N[C@@H](Cc2ccccc2)C(=O)N2CCC[C@H]2C(=O)N(C)[C@H](C)C(=O)N(Cc2ccccc2)CC(=O)N[C@@H](Cc2ccccc2)CC(=O)N2CCC[C@@H]2C(=O)N1C", "PAMPA (log10 cm/s)": "-5.85"}
{"smiles": "CC(C)C[C@@H]1NC(=O)[C@@H](CC(C)C)NC(=O)[C@@H](C)N(C)C(=O)[C@H](Cc2ccccc2)NC(=O)[C@H](CC(C)C)N(C)C(=O)[C@H]2CCCN2C1=O", "PAMPA (log10 cm/s)": "-4.96"}
{"smiles": "CC(C)C[C@@H]1C(=O)N(C)[C@@H](CC(C)C)C(=O)N2CCC[C@@H]2C(=O)N[C@H](CC(C)C)C(=O)N[C@@H](Cc2ccccc2)C(=O)N(C)[C@H](C)C(=O)N1C", "PAMPA (log10 cm/s)": "-5.04"}
{"smiles": "CC(C)C[C@H]1NC(=O)[C@@H](C)N(C)C(=O)[C@H]2CCCN2C(=O)[C@H](Cc2ccccc2)NC(=O)[C@@H](CC(C)C)NC(=O)[C@@H]2CCCN2C(=O)C[C@H](Cc2ccccc2)NC1=O", "PAMPA (log10 cm/s)": "-6.55"}
{"smiles": "CC(C)C[C@@H]1C(=O)N[C@@H](Cc2ccccc2)C(=O)N2CCC[C@H]2C(=O)N(C)[C@@H](C)C(=O)N(C)[C@@H](CC(C)C)C(=O)N[C@@H](Cc2ccccc2)CC(=O)N2CCC[C@@H]2C(=O)N1C", "PAMPA (log10 cm/s)": "-5.23"}
{"smiles": "CC(C)C[C@@H]1C(=O)N2CCC[C@@H]2C(=O)N(C)[C@@H](CC(C)C)C(=O)N[C@@H](Cc2ccccc2)C(=O)N2CCC[C@@H]2C(=O)N[C@@H](C)C(=O)N[C@H](CC(C)C)C(=O)N1C", "PAMPA (log10 cm/s)": "-5.75"}
{"smiles": "CC(C)C[C@@H]1NC(=O)[C@@H]2CCCN2C(=O)CN(Cc2ccccc2)C(=O)[C@@H](CC(C)C)N(C)C(=O)[C@H](C)NC(=O)[C@H](Cc2ccccc2)NC1=O", "PAMPA (log10 cm/s)": "-5.91"}
{"smiles": "CC(C)C[C@@H]1C(=O)N[C@@H](Cc2ccccc2)C(=O)N2CCC[C@@H]2C(=O)N[C@H](C)C(=O)N[C@H](CC(C)C)C(=O)N(C)[C@H](CC(C)C)C(=O)N2CCC[C@@H]2C(=O)N1C", "PAMPA (log10 cm/s)": "-6.66"}
{"smiles": "CC(C)C[C@@H]1NC(=O)[C@@H](C)N(C)C(=O)[C@H](Cc2ccccc2)NC(=O)[C@@H](CC(C)C)NC(=O)[C@@H]2CCCN2C(=O)[C@H](CC(C)C)N(C)C1=O", "PAMPA (log10 cm/s)": "-5.38"}
{"smiles": "CC(C)C[C@@H]1NC(=O)[C@H](C)N(C)C(=O)[C@@H]2CCCN2C(=O)[C@H](Cc2ccccc2)NC(=O)CN(Cc2ccccc2)C(=O)[C@@H]2CCCN2C(=O)CN(Cc2ccccc2)C1=O", "PAMPA (log10 cm/s)": "-6.13"}
{"smiles": "CC(C)C[C@@H]1NC(=O)[C@@H](C)NC(=O)[C@@H]2CCCN2C(=O)[C@H](Cc2ccccc2)NC(=O)CN(Cc2ccccc2)C(=O)[C@@H]2CCCN2C(=O)[C@H](CC(C)C)N(C)C1=O", "PAMPA (log10 cm/s)": "-6.06"}
{"smiles": "CCCN1CC(=O)N[C@H](CC(C)C)C(=O)N[C@@H](CC(C)C)C(=O)N2CCC[C@@H]2C(=O)N(C)[C@@H](CC(C)C)C(=O)N[C@@H](Cc2ccccc2)C1=O", "PAMPA (log10 cm/s)": "-4.80"}
{"smiles": "CC(C)C[C@@H]1NC(=O)[C@@H](C)N(C)C(=O)[C@H]2CCCN2C(=O)[C@H](Cc2ccccc2)NC(=O)[C@@H](CC(C)C)N(C)C(=O)[C@H]2CCCN2C(=O)[C@H](CC(C)C)N(C)C1=O", "PAMPA (log10 cm/s)": "-5.16"}
{"smiles": "CC(C)C[C@@H]1NC(=O)[C@@H](C)N(C)C(=O)[C@H]2CCCN2C(=O)[C@H](Cc2ccccc2)NC(=O)CN(Cc2ccccc2)C(=O)[C@@H]2CCCN2C(=O)[C@H](CC(C)C)N(C)C1=O", "PAMPA (log10 cm/s)": "-5.40"}
{"smiles": "CC(C)C[C@@H]1C(=O)N[C@@H](Cc2ccccc2)C(=O)N2CCC[C@H]2C(=O)N[C@@H](Cc2ccccc2)CC(=O)N(C)[C@@H](CC(C)C)C(=O)N(C)[C@@H](CC(C)C)C(=O)N2CCC[C@H]2C(=O)N1C", "PAMPA (log10 cm/s)": "-5.56"}
{"smiles": "CCCN1CC(=O)N(C)[C@H](CC(C)C)C(=O)N[C@@H](CC(C)C)C(=O)N2CCC[C@H]2C(=O)N(C)[C@@H](CC(C)C)C(=O)N[C@@H](Cc2ccccc2)C(=O)N2CCC[C@@H]2C1=O", "PAMPA (log10 cm/s)": "-4.98"}
{"smiles": "CC(C)C[C@H]1NC(=O)CN(Cc2ccccc2)C(=O)[C@H](C)N(C)C(=O)[C@H]2CCCN2C(=O)[C@H](Cc2ccccc2)NC(=O)[C@H](CC(C)C)N(C)C(=O)[C@@H]2CCCN2C1=O", "PAMPA (log10 cm/s)": "-5.29"}
{"smiles": "CC(C)C[C@@H]1NC(=O)[C@@H](CC(C)C)NC(=O)[C@H](C)N(C)C(=O)[C@H]2CCCN2C(=O)[C@H](Cc2ccccc2)NC(=O)[C@@H](CC(C)C)N(C)C(=O)[C@@H]2CCCN2C1=O", "PAMPA (log10 cm/s)": "-5.67"}
{"smiles": "CCCN1CC(=O)N(C)[C@@H](CC(C)C)C(=O)N(Cc2ccccc2)CC(=O)N2CCC[C@H]2C(=O)N(C)[C@H](CC(C)C)C(=O)N[C@@H](Cc2ccccc2)C(=O)N2CCC[C@@H]2C1=O", "PAMPA (log10 cm/s)": "-5.31"}
{"smiles": "CC(C)C[C@@H]1C(=O)N[C@@H](Cc2ccccc2)C(=O)N2CCC[C@H]2C(=O)N(C)[C@@H](C)C(=O)N(C)[C@H](CC(C)C)C(=O)N(Cc2ccccc2)CC(=O)N2CCC[C@@H]2C(=O)N1C", "PAMPA (log10 cm/s)": "-5.47"}

Extract of 2 entries:

{"smiles": "CC(C)C[C@@H]1NC(=O)[C@@H]2CCCN2C(=O)CN(Cc2ccccc2)C(=O)[C@@H](CC(C)C)N(C)C(=O)[C@H](C)NC(=O)[C@H](Cc2ccccc2)NC1=O", "PAMPA (log10 cm/s)": "-5.91"}
{"smiles": "CC(C)C[C@@H]1C(=O)N2CCC[C@H]2C(=O)N(Cc2ccccc2)CC(=O)N[C@@H](Cc2ccccc2)C(=O)N2CCC[C@@H]2C(=O)N[C@@H](C)C(=O)N[C@H](CC(C)C)C(=O)N1C", "PAMPA (log10 cm/s)": "-5.91"}

Collected by the curators of CycPeptMPDB (Li et al. 2023) from Townsend et al. 2020, doi:10.26434/chemrxiv.13335941.v1.